Literature values in patent EP2420255A2, “Polypeptide inhibitors of urokinase type plasminogen activator” (Ecole Polytechnique Federale De Lausanne (EPFL), priority 2010, dated 2012).

Target: trypsin
Conditions: literature; cited from earlier work

N=C(N)c1ccc(CNC(=O)[C@H](CO)NC(=O)[C@@H](CO)NS(=O)(=O)Cc2ccccc2)cc1 [CJ-463, benzylsulfonyl-D-Ser-Ser-4-amidinobenzylamide]
Ki: 22 nM
